{"source": "patent US9364443B2", "about": "“Compositions and methods for drug delivery” (BAXTER INTERNATIONAL, INC., priority 2008, dated 2016)", "key": {"[1]": {"assay": "Zeta potential and size of SPIO nanoparticles", "type": "physicochemical", "details": "HEPES buffer pH 7.4", "experimental": "To test the effect of size and dextran coating on cellular uptake, SPIO coated with 100 kDa dextran with sizes ranging from 62 to 394 nm were incubated with human monocytes for 1 hour at 37° C. (FIG. 5A). […] After 1 hour-oxidation, SPIO was conjugated with different concentrations of IgG (0.5, 1, 2 and 4 mg/ml) and each conjugate IgG-SPIO complex was incubated with human monocytes for 0.5 and 1 hr at 37° C. […] Nonetheless, the steric barrier generated by the dextran surrounding the iron core of NP could have prevented adsorption of IgG. […] (FIG. 5D). […] The results support the idea that similar mechanisms for iron uptake were operative amongst both cell types. In order to study the mechanism of internalization, IgG-SPIO and free IgG, at a concentration of 1 mg/ml, were co-incubated with human monocytes (FIG. 5F). […] To test that possibility, human serum albumin (HSA) was covalently attached to SPIO using the identical oxidation/reduction procedure as IgG conjugation. […] In order to confirm the notion that particle uptake was independent of the Fc receptor we performed blocking studies. […] This could be due to the fact that HSA modified the conjugated SPIO itself. To test the latter possibility, physical-chemical properties of SPIO including zeta potential and size measurements of the nanoparticles were performed in HEPES buffer at pH 7.4."}, "human monocytes": {"tested_on": "human monocytes", "assay": "Iron uptake by human monocytes, colorimetric ferrozine assay", "type": "cell-based", "details": "covalent HSA conjugate"}}}
{"substance": "HSA-SPIO: human serum albumin covalently attached to SPIO by the same oxidation/reduction procedure", "values": [{"measurement": "effect of modification on particle size", "setting": "[1]", "result": "did not affect its size"}, {"measurement": "uptake versus SPIO", "setting": "human monocytes", "result": "significantly enhanced the uptake of SPIO"}]}
